# Binding of CDR-mutated scFvs to a peptide of the spike HR2 region

Data: MIT Lincoln Laboratory AlphaSeq set, Li et al. 2023, doi:10.1038/s41467-023-39022-2, as distributed in FLAb.

All variants were tested on one target, the spike HR2 peptide PDVDLGDISGINAS (SARS-CoV-2).

Parent: Ab-14, a human scFv built as VH, a 15-residue (Gly4Ser)3 linker, VL. Only the CDRs of the heavy chain vary.
VH: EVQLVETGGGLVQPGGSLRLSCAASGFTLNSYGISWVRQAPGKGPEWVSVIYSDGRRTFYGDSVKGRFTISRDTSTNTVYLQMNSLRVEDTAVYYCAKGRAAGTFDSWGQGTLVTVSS
VL: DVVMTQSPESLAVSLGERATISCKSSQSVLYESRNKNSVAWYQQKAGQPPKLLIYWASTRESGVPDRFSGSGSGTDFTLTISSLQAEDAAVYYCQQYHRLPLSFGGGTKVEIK

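The parent was found by panning a naive human phage display library on the peptide. This is the validation round: designs drawn from the data on random variants, tested in the same kind of assay. Several design methods are mixed in this list. The assay is AlphaSeq: two haploid yeast populations carry antibody and antigen on their surface. The frequency of each diploid, read from paired DNA barcodes, reflects how well the two displayed proteins bind. Each replicate has its own calibration line, from reference interactions of the BCL2 family. There are six technical replicates.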

Variants are written as CDR1, CDR2 and CDR3 of the heavy chain (limits as in the source). Parent: GFTLNSYGIS, VIYSDGRRTFYGDSVK, GRAAGTFDS.
This list holds designs with more than six substitutions.
Scale: log10 of Kd in nM, estimated from mating counts; low values are strong binders.
Averages over replicates are reported, and they cover detected replicates only.
"nd" means that the variant was in the library but no mating with the target was seen in any replicate; the authors take this as a sign of poor binding, and no number exists.
Entries are sorted by rising average, undetected variants last.
Values of this round are not directly comparable with the first-round values of the same sequences.
Empty control strains, which show no peptide, gave a signal in 1% of pairings with all heavy chain designs; the median was 2.08 and 95% of these signals were weaker than 0.84. No background was subtracted. The control count says in how many pairings with the empty strains this scFv gave a signal.
The parent sequence was in this pool as ten entries: three were never detected, three once, and four in most replicates, with averages from 0.34 to 2.37.
The authors averaged sequences with at least three values out of six and counted those with two or fewer as poor binders.

For GFDLNEYGIS / VIYADGRRTAYIDSVK / GTNAGTFDS, the assay gave -0.95 (6 of 6 replicates; controls 1 of 18). The variant GFDLEDYGIS / VIYADGRRTAYIDSVK / GEVAGTFDV gave -0.87 (6 of 6 replicates; controls 0 of 18). The variant GFDLNEYGIS / VIYADGMRTFYIDSVK / GEIAGTFNV showed -0.78 (6 of 6 replicates; controls 0 of 18). The variant GFDLNEYGIS / VIYADGVRKAYADSVK / GQNAGTFDV gave -0.72 (6 of 6 replicates; controls 0 of 18). For GFDLNEYGIS / VIYADGRRTFYVDSVK / GVNAGTFDL, the assay gave -0.71 (6 of 6 replicates; controls 0 of 18). With GFDLDEYGIS / VIYADGRRTFYSDSVK / GSVAGTFDV the result was -0.66 (6 of 6 replicates; controls 0 of 18). For GFDLNEYGIS / VIYADGQRTVYADSVK / GNQAGTFDV, the assay gave -0.62 (6 of 6 replicates; controls 0 of 18). The variant GFDLDEYGIS / VIYADGMRTAYSDSVK / GNVAGTFDQ showed -0.55 (6 of 6 replicates; controls 0 of 18).

For GFDLNEYGIS / VIYADGKRTFYADSVK / GENAGTFDM, the assay gave -0.51 (6 of 6 replicates; controls 0 of 18). With GFNLDEYGIS / VIYADGMRTAYSDSVK / GENAGTFDV the result was -0.49 (6 of 6 replicates; controls 0 of 18). The variant GFDLNEYGIS / VIYADGRRTSYKDSVK / GEHAGTFDV gave -0.47 (6 of 6 replicates; controls 0 of 18). For GFDLNEYGIS / VIYADGVRTFYTDSVK / GTNAGTFDV, the assay gave -0.43 (6 of 6 replicates; controls 0 of 18). For GFDLNEYGIS / VIYADGMRTAYADNVK / GNVAGTFDT, the assay gave -0.41 (6 of 6 replicates; controls 0 of 18). For GFDLDEYGIS / VIYADGRRTFYADSVK / GEVAGTFFS, the assay gave -0.32 (6 of 6 replicates; controls 0 of 18). The variant GFDIDEYGIS / VIYADGRRTFYADSVK / GTNAGTFDV showed -0.31 (6 of 6 replicates; controls 1 of 18). For GFDLEDYGIS / VIYADGRRTAYVDSVK / GEVAGTFDV, the assay gave -0.23 (6 of 6 replicates; controls 1 of 18).

For GFDLNEYGIS / VIYADGQRTFYVDSVK / GVNAGTFDS, the assay gave -0.17 (6 of 6 replicates; controls 0 of 18). The variant GFDLNEYGIS / VIYADGMRTAYSDSVK / GGNAGTFDL gave -0.12 (4 of 6 replicates; controls 0 of 18). With GFDLDEYGIS / VIYADGRRTFYADSVK / GEAAGTFDA the result was -0.10 (6 of 6 replicates; controls 0 of 18). The variant GFDLNEYGIS / VIYADGVRTQYADSVK / GNQAGTFDV showed -0.10 (6 of 6 replicates; controls 1 of 18). The variant GFDLDEYGIS / VIYADGSRTAYADSVK / GNNAGTFDQ gave -0.05 (6 of 6 replicates; controls 0 of 18). The variant GFDVEEYGIS / VIYADGRRSQYANSVK / GAIGGTFDM gave 0.15 (6 of 6 replicates; controls 3 of 18). For GFDLNEYGIS / VIYADGRRKFYADKVK / GENAGTFVV, the assay gave 0.24 (6 of 6 replicates; controls 1 of 18). For GFDLDEYGIS / VIYADGMRTYYADSVK / GENAGTFDL, the assay gave 0.27 (6 of 6 replicates; controls 0 of 18).

The variant GFDLNEYGIS / VIYADGRRTFYSDSVK / GEIAGTFDK showed 0.44 (6 of 6 replicates; controls 0 of 18). The variant GFDLDEYGIS / VIYADGMRTAYADDVK / GENAGTFDM showed 0.99 (4 of 6 replicates; controls 0 of 18). For EFQIQDYGIS / VIYADGSRTAYAESVK / GNMGGTFST, the assay gave 1.32 (2 of 6 replicates; controls 0 of 18). With GFLLDEYGIS / VIYADGQRTAYTDDVK / GYVGGIGGI the result was 1.52 (1 of 6 replicates; controls 0 of 18). With GFDLNEYGIS / VIYADGMRTAYADSVK / GENAGTFVV the result was 1.74 (3 of 6 replicates; controls 0 of 18). For GWDLEKYGIS / VIYADGKRSEYSDAVK / GQQAGTLNT, the assay gave 1.76 (2 of 6 replicates; controls 0 of 18). The variant GENLSDYGIS / VIYSDGRRTFYGDDVK / GRRAHTFDT showed 2.03 (1 of 6 replicates; controls 1 of 18). The variant GFDLNEYGVS / VIYADGQRTQYTDKVK / GSFSADITN showed 3.19 (1 of 6 replicates; controls 1 of 18).

The variant GMDLDEYGIS / VIYADGQRRQYAANVK / GVNIDGFDL showed nd (0 of 6 replicates; controls 0 of 18). For GNGLQEYGIS / VIYADGLRSMYANSVK / GQLDGMVLV, the assay gave nd (0 of 6 replicates; controls 0 of 18). The variant GFELTEYGIS / VIYADGHRSFVTDTVK / GQNAGAFNV gave nd (0 of 6 replicates; controls 0 of 18). For GYDIDEYGIS / VIYADGQRTAYQNAVK / GEQAGIMMY, the assay gave nd (0 of 6 replicates; controls 0 of 18). For GFDLDEQGIS / VIYADGLRVAYKDRVK / GAGSGVIDM, the assay gave nd (0 of 6 replicates; controls 0 of 18). For GFGIDEYGIS / VIYADGQRKMYQDNVK / GNVGSLFSV, the assay gave nd (0 of 6 replicates; controls 0 of 18). The variant GFDLSEYGIS / VIYADGRRTAYQDSVK / GLNEGMLVV gave nd (0 of 6 replicates; controls 0 of 18). With GFDVDEQGIS / VIYADGRRSQYANSVK / GAIGGMFDM the result was nd (0 of 6 replicates; controls 0 of 18).

The variant GFDLSEYGIS / VIYADGERANYVSNFK / GEQAGTFVL gave nd (0 of 6 replicates; controls 0 of 18).

Picked from the list: the 4 lowest averages where every replicate gave a value.

CDR-H1	CDR-H2	CDR-H3	mean, log10 nM	detected	empty controls
GFDLNEYGIS	VIYADGRRTAYIDSVK	GTNAGTFDS	-0.95	6 of 6	1 of 18
GFDLEDYGIS	VIYADGRRTAYIDSVK	GEVAGTFDV	-0.87	6 of 6	0 of 18
GFDLNEYGIS	VIYADGMRTFYIDSVK	GEIAGTFNV	-0.78	6 of 6	0 of 18
GFDLNEYGIS	VIYADGVRKAYADSVK	GQNAGTFDV	-0.72	6 of 6	0 of 18